The record followed here is patent US7585839B2, “Medical uses of intercellular communication facilitating compounds” (Zealand Pharma A/S, priority 2001, dated 2009).

Marks after values point to notes of the source that are not given here.

Data set [1] is described as follows: In vitro plasma and serum stability, human. Format: in vitro ADME. The conditions noted are these: for T½, PLASMA, HEPARIN HUMAN / T½, SERUM HUMAN: 37° C., 0.1 mg/ml. As for the experimental part: (§1) The stability of peptides is analysed in serum and plasma. The peptides are incubated at 37° C. in plasma or serum and samples taken at approx. 9 regular intervals between t=0 and t=156 min are analysed by HPLC.
(§2) This is done by subsequent injections of the drug, plasma, and a co-injection with the drug and the plasma, followed by optimisation of the LC method parameters until a satisfactory separation is obtained. Three parallel experiments are performed for each plasma type. 100 ml of peptide is mixed with 900 ml plasma at t=0 and incubated at 37° C. (drug-plasma mixture conc. 0.1 mg/ml). Samples of 100 ml of the drug-plasma mixture are removed at appropriate intervals and the degradation stopped by precipitation of the sample with 10 ml MeCN:TFA 50:50 v/v. A control plasma sample without the drug treated in the same manner is also taken. The plasma samples are centrifuged for 15 min. at 12,000 rpm (Eppendorf centrifuge) at ambient temperature. The resulting supernatant solution is transferred to 300 ml HP autosamler vials and analyzed by HPLC. The samples are analyzed in the following order: blank, the peptide at 0.1 mg/mL, the plasma without the peptide, the three parallel samples for t=0, the three parallel samples for t=5 min. the three parallel samples for t=10 min. etc. And finally the three parallel samples for t=0 are repeated to make sure that there have been no degradation or other failure during the analyses. The sample concentrations (peak height in mAU) are plotted vs. time and fitted to a function describing a mono exponential decay (Excel).

The nature of data set [2]: In vitro plasma and serum stability, rabbit. Format: in vitro ADME. To be noted: 37° C., 0.1 mg/ml. As for the experimental part: as §1, §2
A further data set concerns GJIC in Cardiomyocytes. The data set is described as follows: Intercellular conductance (Gj) in isolated cardiomyocyte pairs, double patch clamp. Format: cell-based, guinea pig. The conditions noted are these: 10^−8 M; steady-state after about 400 seconds of stimulation. (The patch-clamp technique gives a direct electrical read-out from membranes.)
Data set [3] relates to excisional wounds on the back skin. The experiment in a line: Excisional wound healing in mice (planned). Format: in vivo. The conditions noted are these: 5 days treatment. Here is the method:
To examine wound healing in vivo, Compound 2 and Compound 40 is administered topically (concentration range 10-9- 10-6 mol/l in aqueous gel) and parenterally (10-10-10-6 mol/kg) two to four times daily to mice. Two round excisional wounds are created down the panniculus carnosus with a 6-mm punch biopsy on the back skin of each mouse. After 5 days treatment with compound 2 and compound 40 the effect of skin is evaluated histologically by microscopy of biopsies and wound healing is measured by daily measurements of the diameter of the wound.

Data set [4] can be described thus: In vitro plasma stability under sterile conditions, human plasma. Format: in vitro ADME. To be noted: heparin, 90%, 0.2 mM.
Data set [5] can be described thus: In vitro plasma stability under sterile conditions, rat plasma. Format: in vitro ADME. The conditions noted are these: heparin, 90%, 0.2 mM.
Data set [6] in a line: In vitro plasma stability, rat. Format: in vitro ADME. To be noted: 37° C., 0.1 mg/ml. Here is the method:
as §1
as §2, with “And finally the three parallel samples for t=0 are repeated to make sure that there have been no degradation or other failure during the analyses. The sample concentrations (peak height in mAU) are plotted vs. time and fitted to a function describing a mono exponential decay (Excel).” left out

Turning to “3(4-hydroxyphenyl)propionyl-Pro-Hyp-Gly-Ala-Gly-Lys-Lys-Lys-Lys-Lys-Lys-NH2 [Compound 51]”, the “Human plasma half life” value in data set [1] was over 5 h.

Take “3(4-hydroxyphenyl)propionyl-Pro-Hyp-Gly-Ala-Gly-Lys-Lys-Lys-Lys-Lys-Lys-OH [Compound 49]”: in data set [1], the “Human plasma half life” value came out at 0.033 h; the “stability in plasma and serum compared with AAP10” value (“stability … compared with AAP10” below) is on record as “considerably more stable”.

As to “3-(4-hydroxyphenyl)propionyl-Pro-Hyp-Gly-Ala-Gly-OH [HP5, reference compound]”, in data set [2], the “T½, PLASMA, HEPARIN RABBIT” value is 3.7 min ± 1%.

Take “Ac-D-Tyr-D-Pro-D-4Hyp-Gly-D-Ala-Gly-NH2 [Compound 2]”: in data set [1], the “Human plasma half life” value was over 5 h; the “stability … compared with AAP10” value is “considerably more stable”; the “T½, PLASMA, HEPARIN HUMAN” value is over 5 h; the “T½, SERUM HUMAN” value was over 5 h. In the data set on GJIC in Cardiomyocytes, the “ΔGj (relative change of intercellular conductance)” value was “+120±46%”. For the same substance, the “T½, PLASMA, HEPARIN RABBIT” value in data set [2] was over 5 h. Further, in data set [3], the “skin structure, histology” value was “will not affect skin structure alone”. The “Plasma stability, half-life” value in data set [4] (incub. 7 days) was 338 h. For the same substance, in data set [5] (incub. 7 days), the “Plasma stability, half-life” value was 247 h.

Ac-Gly-Asn-Tyr-NH2 [Compound 40]: in data set [1], the “Human plasma half life” value worked out at 35.67 h. In addition, in data set [3], the “skin structure, histology” value is reported as “will not affect skin structure alone”.

In the case of CF3C(O)-AAP10-NH2, in data set [1], the “Human plasma half life” value came to 4 h and the “T½, SERUM HUMAN” value was 3.1 hrs ± 10%. Further, the “T½, PLASMA, HEPARIN RABBIT” value in data set [2] was 3.8 hrs ± 0.5%.

Regarding “Cyclo(Tyr-Pro-4Hyp-Gly-Ala-Gly-Asn) [Compound 3]”, in data set [1], the “Human plasma half life” value is over 5 h; the “stability … compared with AAP10” value is given as “considerably more stable”; the “T½, SERUM HUMAN” value is over 5 h. The “T½, PLASMA, HEPARIN RABBIT” value in data set [2] is over 5 h.

For H-DY-DN-G-NH2, in data set [1], the “Human plasma half life” value is 4.93 h and the “T½, PLASMA, HEPARIN HUMAN” value is listed as 296 min ± 34%.

As to H-Gly-Ala-Gly-Asn-Tyr-NH2 [Compound 39], the “Human plasma half life” value in data set [1] came to 0.12 h.

Consider “H-Gly-Ala-Gly-Hyp-Pro-Tyr-Lys-Lys-Lys-Lys-Lys-Lys-OH [Compound 48]”, for which the “stability … compared with AAP10” value in data set [1] is given as “considerably more stable”. Further, in data set [1] (measured in EDTA plasma), the “Human plasma half life, min.” value is 87* min.

Take “H-Gly-Ala-Gly-Hyp-Pro-Tyr-NH2 [AAP10, reference compound]”: in data set [1], the “Human plasma half life” value was determined as 0.217 h; the “half life in plasma and serum” value is “less than 10 minutes”. For the same substance, in data set [2], the “T½, PLASMA, HEPARIN RABBIT” value was 9.5 min ± 12% and the “T½, SERUM RABBIT” value is recorded as 2.7 min ± 4%. In data set [6], the “T½, PLASMA, HEPARIN RAT” value was 8.2 min ± 13%. Besides, the “Plasma stability, half-life” value in data set [4] (incubation 20 min) turned out to be 0.03 h. Besides, the “Plasma stability, half-life” value in data set [5] (incubation 20 min) was determined as 0.0633 h.

Take H-Gly-Asn-Tyr-NH2 [Compound 41]: the “Human plasma half life” value in data set [1] amounted to 1.05 h.

Regarding “H-Gly-Pro-Hyp-Gly-Ala-Gly-OH [AAP, reference compound]”, in data set [1], the “Human plasma half life” value was 0.13 h and the “T½, PLASMA, HEPARIN HUMAN” value was 7.6 min ± 6%. Moreover, the “T½, PLASMA, HEPARIN RABBIT” value in data set [2] is 4.4 min ± 12%.

In the case of [Pro^4]AAP10-NH2 [reference compound], the “Human plasma half life” value in data set [1] was found to be 0.083 h.
